These results are taken from PubChem BioAssay AID1090 (ChemBank, 2008).

Molecules are shown by their SMILES. The list shows a part of the results, in another mix than the full data. The source made the active and inactive calls.

The nature of the assay: S. pombe growth modifiers, basal conditions – strain 972, OD600, 24 h, no modulator, primary screen (AID 1090).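 Also: basal condition with compound alone and no growth modifier present; test concentration not given here.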 The settings on record: S. pombe 972 growth, higher = more signal, called active from +8 up or from −8 down.
With `COP(=O)(/N=C1/CC(CCCO)=CC(C2CC2)N1Cc1cccc(OC(F)(F)F)c1)OC` (stereo not given), the z-score is inactive: -5.45.
Then `O=P(/N=C1/CC(CCCO)=CC(C2CC2)N1Cc1cc2c(cc1Br)OCO2)(Oc1ccccc1)Oc1ccccc1` (stereo not given), with inactive: -1.89.
In the case of `CN1/C(=N\P(=O)(Oc2ccccc2)Oc2ccccc2)CC(CCCO)=CC1c1cccs1` (stereo not given), the z-score is inactive: -0.669.
`COP(=O)(/N=C1/CC(CCCO)=CC(C2CC2)N1Cc1cc2c(cc1Br)OCO2)OC` (stereo not given): the z-score was inactive: -1.8.
With `O=P(/N=C1/CC(CCCO)=CC(C2CC2)N1Cc1cccc(OC(F)(F)F)c1)(Oc1ccccc1)Oc1ccccc1` (stereo not given), the z-score was inactive: -3.04.
With `CC1C=C(CCCO)C/C(=N/P(=O)(Oc2ccccc2)Oc2ccccc2)N1Cc1cccc(OC(F)(F)F)c1` (stereo not given), the z-score is inactive: -2.67.
Turning to `O=P(/N=C1/CC(CCCO)=CC(c2cccs2)N1Cc1cccc(OC(F)(F)F)c1)(Oc1ccccc1)Oc1ccccc1` (stereo not given), the z-score was active: -11.8.
Regarding `CN1/C(=N\P(=O)(Oc2ccccc2)Oc2ccccc2)CC(c2ccc(CO)cc2)=CC1C1CC1` (stereo not given), the z-score was inactive: -2.87.
With `COP(=O)(/N=C1/CC(CCCO)=CC(c2ccc(CN3CCCC3)cc2)N1Cc1cc2c(cc1Br)OCO2)OC` (stereo not given), the z-score is inactive: -2.36.
`O=P(/N=C1/CC(CCCO)=CC(c2ccc(CN3CCCC3)cc2)N1Cc1cc2c(cc1Br)OCO2)(Oc1ccccc1)Oc1ccccc1` (stereo not given): the z-score is inactive: -2.71.
Consider `CN1/C(=N\P(=O)(Oc2ccccc2)Oc2ccccc2)CC(CCCO)=CC1c1ccc(CN2CCCC2)cc1` (stereo not given), for which the z-score is inactive: -0.224.
Consider `O=P(/N=C1/CC(c2ccc(CO)cc2)=CC(c2cccs2)N1Cc1cccc(OC(F)(F)F)c1)(Oc1ccccc1)Oc1ccccc1` (stereo not given), for which the z-score is inactive: -7.78.
For `COP(=O)(/N=C1/CC(c2ccc(CO)cc2)=CC(c2cccs2)N1C)OC` (stereo not given), the z-score was inactive: -3.53.
Consider `O=P(/N=C1/CC(c2ccc(CO)cc2)=CC(C2CC2)N1Cc1cc2c(cc1Br)OCO2)(Oc1ccccc1)Oc1ccccc1` (stereo not given), for which the z-score is inactive: -4.89.
In the case of `COP(=O)(/N=C1/CC(c2ccc(CO)cc2)=CC(C2CC2)N1Cc1sc2ccccc2c1Cl)OC` (stereo not given), the z-score was active: -9.01.
For the compound `CN1/C(=N\P(=O)(Oc2ccccc2)Oc2ccccc2)CC(c2ccc(CO)cc2)=CC1c1cccs1` (stereo not given), the z-score was inactive: -3.95.
As for `O=P(/N=C1/CC(CCCO)=CC(c2cccs2)N1Cc1cc2c(cc1Br)OCO2)(Oc1ccccc1)Oc1ccccc1` (stereo not given), the z-score was inactive: -3.01.
Regarding `COP(=O)(/N=C1/CC(CCCO)=CC(c2ccc(CN3CCCC3)cc2)N1Cc1cccc(OC(F)(F)F)c1)OC` (stereo not given), the z-score was inactive: -5.84.
With `COP(=O)(/N=C1/CC(CCCO)=CC(c2ccc(CN3CCCC3)cc2)N1C)OC` (stereo not given), the z-score was inactive: -1.16.
As for `COP(=O)(/N=C1/CC(CCCO)=CC(C2CC2)N1C)OC` (stereo not given), the z-score is inactive: 0.25.
For the compound `COP(=O)(/N=C1/CC(CCCO)=CC(c2cccs2)N1C)OC` (stereo not given), the z-score is inactive: -1.87.
For the compound `COP(=O)(/N=C1/CC(c2ccc(CO)cc2)=CC(C2CC2)N1C)OC` (stereo not given), the z-score was inactive: -1.9.
In the case of `COP(=O)(/N=C1/CC(CCCO)=CC(C2CC2)N1Cc1sc2ccccc2c1Cl)OC` (stereo not given), the z-score was active: -9.1.
Then `COP(=O)(/N=C1/CC(CCCO)=CC(C)N1Cc1cccc(OC(F)(F)F)c1)OC` (stereo not given), with inactive: -2.66; and `COP(=O)(/N=C1/CC(CCCO)=CC(c2ccc(CN3CCCC3)cc2)N1Cc1sc2ccccc2c1Cl)OC` (stereo not given), with inactive: -4.31; and `O=P(/N=C1/CC(CCCO)=CC(C2CC2)N1Cc1sc2ccccc2c1Cl)(Oc1ccccc1)Oc1ccccc1` (stereo not given), with inactive: -4.66.
For the compound `COP(=O)(/N=C1/CC(c2ccc(CO)cc2)=CC(C2CC2)N1Cc1cc2c(cc1Br)OCO2)OC` (stereo not given), the z-score is inactive: -5.06.
Turning to `O=P(/N=C1/CC(c2ccc(CO)cc2)=CC(C2CC2)N1Cc1sc2ccccc2c1Cl)(Oc1ccccc1)Oc1ccccc1` (stereo not given), the z-score is inactive: -5.1.
Consider `CN1/C(=N\P(=O)(Oc2ccccc2)Oc2ccccc2)CC(CCCO)=CC1C1CC1` (stereo not given), for which the z-score was inactive: 0.181.
As to `O=P(/N=C1/CC(CCCO)=CC(c2ccc(CN3CCCC3)cc2)N1Cc1sc2ccccc2c1Cl)(Oc1ccccc1)Oc1ccccc1` (stereo not given), the z-score is active: -11.3.
